Reference: patent US6458784B1, “Vitronectin receptor antagonists” (priority 1995, dated 2002)

Amino acid sequences for entries named in this document (tags omitted). Residues count along the entry.
UniProt P05106, 27-788: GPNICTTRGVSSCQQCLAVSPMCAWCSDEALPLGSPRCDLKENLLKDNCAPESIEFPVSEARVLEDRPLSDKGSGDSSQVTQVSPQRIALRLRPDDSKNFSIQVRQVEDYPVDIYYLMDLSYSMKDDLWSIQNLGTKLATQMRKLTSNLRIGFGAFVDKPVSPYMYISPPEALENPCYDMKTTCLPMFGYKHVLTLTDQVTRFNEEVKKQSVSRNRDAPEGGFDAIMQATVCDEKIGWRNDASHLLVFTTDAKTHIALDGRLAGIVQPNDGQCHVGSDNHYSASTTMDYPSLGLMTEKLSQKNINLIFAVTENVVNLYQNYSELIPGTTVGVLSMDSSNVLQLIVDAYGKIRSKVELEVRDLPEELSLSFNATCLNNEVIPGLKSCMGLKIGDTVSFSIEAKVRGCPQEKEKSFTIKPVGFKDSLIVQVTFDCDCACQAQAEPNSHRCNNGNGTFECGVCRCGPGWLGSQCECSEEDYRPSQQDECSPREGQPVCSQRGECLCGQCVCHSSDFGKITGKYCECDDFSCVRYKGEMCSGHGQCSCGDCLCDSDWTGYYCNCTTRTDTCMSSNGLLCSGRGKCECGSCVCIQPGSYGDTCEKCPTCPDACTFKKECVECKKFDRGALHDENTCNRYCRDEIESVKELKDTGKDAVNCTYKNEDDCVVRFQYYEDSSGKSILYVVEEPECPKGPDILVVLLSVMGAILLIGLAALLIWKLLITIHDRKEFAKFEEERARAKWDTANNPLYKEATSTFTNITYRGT
UniProt P06756, 891-1048 partner limits assumed: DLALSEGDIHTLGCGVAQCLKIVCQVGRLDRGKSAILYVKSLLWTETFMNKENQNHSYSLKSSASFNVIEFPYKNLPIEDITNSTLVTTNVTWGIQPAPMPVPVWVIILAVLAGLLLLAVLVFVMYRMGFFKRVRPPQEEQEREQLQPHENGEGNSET
UniProt P06756, 31-889 limits assumed: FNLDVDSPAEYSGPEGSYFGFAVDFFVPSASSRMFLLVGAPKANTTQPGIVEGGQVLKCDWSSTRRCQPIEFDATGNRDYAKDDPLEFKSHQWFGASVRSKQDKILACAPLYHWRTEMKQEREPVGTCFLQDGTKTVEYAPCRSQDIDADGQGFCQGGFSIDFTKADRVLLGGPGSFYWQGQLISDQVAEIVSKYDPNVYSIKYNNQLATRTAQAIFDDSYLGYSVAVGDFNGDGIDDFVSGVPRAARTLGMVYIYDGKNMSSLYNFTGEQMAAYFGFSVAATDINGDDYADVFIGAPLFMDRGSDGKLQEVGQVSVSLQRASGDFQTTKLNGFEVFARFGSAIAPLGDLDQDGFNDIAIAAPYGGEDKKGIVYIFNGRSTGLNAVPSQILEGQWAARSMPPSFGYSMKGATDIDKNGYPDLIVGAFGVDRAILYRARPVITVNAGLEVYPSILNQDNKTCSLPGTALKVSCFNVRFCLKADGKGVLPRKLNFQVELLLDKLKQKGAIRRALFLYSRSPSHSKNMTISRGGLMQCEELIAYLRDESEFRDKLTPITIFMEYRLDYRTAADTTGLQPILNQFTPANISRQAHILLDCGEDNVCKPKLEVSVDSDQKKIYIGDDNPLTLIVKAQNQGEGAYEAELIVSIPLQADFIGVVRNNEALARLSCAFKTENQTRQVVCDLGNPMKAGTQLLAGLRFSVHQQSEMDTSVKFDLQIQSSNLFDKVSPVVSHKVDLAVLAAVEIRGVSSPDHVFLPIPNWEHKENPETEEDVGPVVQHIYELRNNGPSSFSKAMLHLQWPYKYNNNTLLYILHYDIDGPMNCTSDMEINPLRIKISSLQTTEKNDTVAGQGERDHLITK
UniProt P08514, 32-887 limits assumed: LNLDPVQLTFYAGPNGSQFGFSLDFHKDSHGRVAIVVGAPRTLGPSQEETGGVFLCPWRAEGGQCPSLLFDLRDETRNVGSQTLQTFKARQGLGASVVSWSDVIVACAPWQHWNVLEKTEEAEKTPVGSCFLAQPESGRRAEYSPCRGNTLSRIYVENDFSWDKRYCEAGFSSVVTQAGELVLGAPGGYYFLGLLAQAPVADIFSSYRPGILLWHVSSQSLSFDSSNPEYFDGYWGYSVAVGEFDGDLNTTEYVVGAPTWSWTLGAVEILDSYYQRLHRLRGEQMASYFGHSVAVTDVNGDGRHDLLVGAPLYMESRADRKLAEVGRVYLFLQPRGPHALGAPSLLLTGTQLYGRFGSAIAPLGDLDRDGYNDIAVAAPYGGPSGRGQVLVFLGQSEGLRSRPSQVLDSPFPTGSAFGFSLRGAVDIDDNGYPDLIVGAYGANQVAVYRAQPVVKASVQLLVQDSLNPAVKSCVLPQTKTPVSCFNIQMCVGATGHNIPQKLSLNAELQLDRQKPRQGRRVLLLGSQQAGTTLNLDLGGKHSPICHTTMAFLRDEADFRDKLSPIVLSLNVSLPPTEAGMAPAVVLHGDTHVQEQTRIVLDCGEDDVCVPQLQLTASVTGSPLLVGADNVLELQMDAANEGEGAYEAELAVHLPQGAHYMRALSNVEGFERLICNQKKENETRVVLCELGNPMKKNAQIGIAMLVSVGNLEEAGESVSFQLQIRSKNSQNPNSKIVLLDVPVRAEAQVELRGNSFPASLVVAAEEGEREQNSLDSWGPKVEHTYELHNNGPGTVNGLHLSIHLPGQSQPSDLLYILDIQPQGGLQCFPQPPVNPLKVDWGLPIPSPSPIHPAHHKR
UniProt P08514, 891-1039 partner limits assumed: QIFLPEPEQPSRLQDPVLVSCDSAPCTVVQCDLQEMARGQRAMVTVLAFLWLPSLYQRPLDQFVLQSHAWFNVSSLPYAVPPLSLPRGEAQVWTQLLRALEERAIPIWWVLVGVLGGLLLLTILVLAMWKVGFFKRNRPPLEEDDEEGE

Key:
[1] = target: T1, αvβ3 (vitronectin receptor) (Homo sapiens, UniProt P05106+P06756); assay: Solid-phase [3H]-SK&F-107260 binding to αvβ3 (inhibition of vitronectin binding)
T1 construct: Human placenta or human platelet αvβ3 (0.1-0.3 mg/mL) in buffer T; from tissue; host or cells: human placenta or human platelets
Experimental: Inhibition of Vitronectin Binding
0.1-0.2 μg of αvβ3 was added per well. The plates were incubated overnight at 4° C. […] Following incubation the wells were aspirated completely and washed twice with 0.2 mL buffer A.
This solution is then diluted to the required final compound concentration.
The plates were incubated for 1 hr at room temperature. Following incubation the wells were aspirated completely and washed once with 0.2 mL of ice cold buffer A in a well-to-well fashion.

[2] = target: GPIIb-IIIa (fibrinogen receptor, αIIbβ3) (Homo sapiens, UniProt P05106+P08514); assay: Competitive binding to GPIIb-IIIa with [3H]-SK&F-107260 (inhibition of RGD-mediated GPIIb-IIIa binding)

Compound	Ki [1] [µM]	Ki [2] [µM]
CN1Cc2cc(C(=O)Nc3cccc(N)n3)ccc2CC(CC(=O)O)C1=O (racemic) [Example 2, (±)-8-[[(6-amino-2-pyridinyl)amino]carbonyl]-2-methyl-3-oxo-2,3,4,5-tetrahydro-1H-2-benzazepine-4-acetic acid]	0.65	> 50
CC(=O)N1c2ccc(C(=O)Nc3cccc(N)n3)cc2CN(C)C(=O)C1CC(=O)O (racemic) [Example 4, (±)-1-Acetyl-7-[[(6-amino-2-pyridinyl)amino]carbonyl]-4-methyl-3-oxo-2,3,4,5-tetrahydro-1H-1,4-benzodiazepine-2-acetic acid]	15.1	> 100
